K app data for 25 compounds are collected here from ChEMBL document CHEMBL1134414, “Synthesis, antitumor cytotoxicity, and DNA-binding of novel N-5,2-di(omega-aminoalkyl)-2,6-dihydropyrazolo[3,4,5-kl]acridine-5-carboxamides” (J Med Chem, 2001).

Molecules are shown by their SMILES.

Holding throughout (conditions): Bos taurus
Test [1] concerns Nucleic Acid.
Test [2] concerns Nucleic Acid. This is another data set of the same source.
The test system of test [3] is Nucleic Acid. This is another data set of the same source.
For test [4], the system named is Nucleic Acid. Briefly: Apparent equilibrium constant for binding to calf thymus DNA by competitive displacement fluorometric assay. It counts as functional. The procedure, abridged: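 Ethidium displacement from calf thymus DNA, [poly(dA-dT)]2 or [poly(dG-dC)]2 (1 μM each) in 10 mM Na2HPO4/10 mM NaH2PO4, 1 mM EDTA, pH 7.0, with 1.26 μM ethidium bromide. Drug (stock ~5 mM in DMSO) added serially; fluorescence read at 20 °C, ex 546/em 595 nm. C50 is the drug level giving 50% loss of bound-ethidium fluorescence, mean of three. Kapp = 1.26/C50 × 10^7.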

As to `CN(C)CCCNC(=O)c1ccc2c3c(c4ccccc4nc13)NN2CCN(C)C`, the figures for the K app with Nucleic Acid [1], with Nucleic Acid [2] and in the test on Nucleic Acid [3] were 2.68e-07 M⁻¹, 2.07e-07 M⁻¹ and 1.23e-08 M⁻¹, respectively.
For `O=C(NCCNCCO)c1ccc2c3c(c4ccccc4nc13)NN2CCN1CCCC1`, the K app with Nucleic Acid [4] was 3.02e+07 M⁻¹; with Nucleic Acid [2], 6.66e-07 M⁻¹; with Nucleic Acid [3], 6.1e-07 M⁻¹.
On to `CN(C)CCNC(=O)c1ccc2c3c(c4cc(O)ccc4nc13)NN2CCN1CCCC1`, for which the results for the K app in the test with Nucleic Acid [1], with Nucleic Acid [2] and in the test on Nucleic Acid [3] were 1.26e-06 M⁻¹, 7.98e-07 M⁻¹ and 1.2e-08 M⁻¹, respectively.
As to `CN(C)CCNC(=O)c1ccc2c3c(c4ccccc4nc13)NN2CCN1CCCCC1`, the K app worked out at 2.03e-06 M⁻¹ in the test on Nucleic Acid [1], 1.02e-06 M⁻¹ with Nucleic Acid [2] and 3.7e-07 M⁻¹ with Nucleic Acid [3].
Taken in the same sequence, the figures for `O=C(NCCN1CCCCC1)c1ccc2c3c(c4ccccc4nc13)NN2CCN1CCCCC1` were 4.19e-07 M⁻¹, 1.13e-06 M⁻¹ and 4.8e-07 M⁻¹.
With `CN(C)CCNC(=O)c1ccc2c3c(c4ccccc4nc13)NN2CCN1CCCC1`, the K app in the test on Nucleic Acid [1] was 1.49e-07 M⁻¹; in the test on Nucleic Acid [2], 3.1e-07 M⁻¹; in the test with Nucleic Acid [3] it was 3.82e-08 M⁻¹.
As to `CN(C)CCCNC(=O)c1ccc2c3c(c4ccccc4nc13)NN2CCCN(C)C`, the figures for the K app in the test with Nucleic Acid [1], with Nucleic Acid [2] and with Nucleic Acid [3] were 2.74e-07 M⁻¹, 3.8e-07 M⁻¹ and 9.4e-08 M⁻¹, respectively.
Turning to `CN(C)CCNC(=O)c1ccc2c3c(c4cc([N+](=O)[O-])ccc4nc13)NN2CCN1CCCC1`, the K app is 1.1e+08 M⁻¹ in the test with Nucleic Acid [4], 3.71e-06 M⁻¹ with Nucleic Acid [2] and 1.57e-06 M⁻¹ in the test on Nucleic Acid [3].
Consider `COc1ccc2c(c1)-c1nn(CCN(C)C)c3ccc(C(=O)NCCN(C)C)c(c13)N2`, for which the K app was found to be 1.75e-06 M⁻¹ with Nucleic Acid [1], 4.14e-07 M⁻¹ in the test with Nucleic Acid [2] and 2.61e-07 M⁻¹ with Nucleic Acid [3].
In the case of `CN(C)CCNC(=O)c1ccc2c3c(c4cc([N+](=O)[O-])ccc4nc13)NN2CCN(C)C`, the figures for the K app in the test on Nucleic Acid [4], in the test with Nucleic Acid [2] and in the test on Nucleic Acid [3] were 1.42e+09 M⁻¹, 6.3e-07 M⁻¹ and 0.000126 M⁻¹, respectively.
Regarding `COc1ccc2c(c1)-c1nn(CCN3CCCC3)c3ccc(C(=O)NCCN(C)C)c(c13)N2`, the K app turned out to be 3.5e-07 M⁻¹ in the test with Nucleic Acid [1], 3.2e-07 M⁻¹ in the test with Nucleic Acid [2] and 3.4e-07 M⁻¹ in the test with Nucleic Acid [3].
As to `COc1ccc2c(c1)-c1nn(CCN3CCCCC3)c3ccc(C(=O)NCCN(C)C)c(c13)N2`, the values for the K app in the test with Nucleic Acid [1], with Nucleic Acid [2] and with Nucleic Acid [3] were 1.54e-07 M⁻¹, 1.73e-06 M⁻¹ and 5.7e-07 M⁻¹, respectively.
Regarding `CN(C)CCN1Nc2c3ccccc3nc3c(C(=O)NCCN)ccc1c23`, the K app turned out to be 9.7e-07 M⁻¹ with Nucleic Acid [1], 5.2e-07 M⁻¹ with Nucleic Acid [2] and 1.56e-07 M⁻¹ in the test with Nucleic Acid [3].
On to `CN(C)CCNC(=O)c1ccc2c3c(c4cc(O)ccc4nc13)NN2CCN(C)C`, for which the K app is 3.39e-07 M⁻¹ in the test with Nucleic Acid [1], 9.7e-07 M⁻¹ in the test with Nucleic Acid [2] and 1.86e-07 M⁻¹ in the test on Nucleic Acid [3].
As for `CN(C)CCNC(=O)c1ccc2c3c(c4cc(O)ccc4nc13)NN2CCN1CCCCC1`, the values for the K app in the test on Nucleic Acid [1], in the test on Nucleic Acid [2] and with Nucleic Acid [3] were 1.43e-06 M⁻¹, 7.9e-07 M⁻¹ and 2.86e-06 M⁻¹, respectively.
For `O=C(NCCNCCO)c1ccc2c3c(c4ccccc4nc13)NN2CCN1CCCCC1`, the K app in the test with Nucleic Acid [4] was 1.5e+08 M⁻¹; in the test on Nucleic Acid [2], 9.1e-07 M⁻¹; in the test with Nucleic Acid [3], 1.46e-06 M⁻¹.
In the case of `CN(C)CCN1Nc2c3ccccc3nc3c(C(=O)NCCNCCO)ccc1c23`, the figures for the K app with Nucleic Acid [4], in the test with Nucleic Acid [2] and in the test on Nucleic Acid [3] were 2.52e+09 M⁻¹, 1.05e-06 M⁻¹ and 7.41e-06 M⁻¹, respectively.
Regarding `CN(C)CCNC(=O)c1ccc2c3c(c4ccccc4nc13)NN2CCN(C)C`, the K app is 4.85e-07 M⁻¹ in the test with Nucleic Acid [1], 2.45e-07 M⁻¹ in the test with Nucleic Acid [2] and 7.27e-08 M⁻¹ in the test with Nucleic Acid [3].
Consider `CN(C)CCCN1Nc2c3ccccc3nc3c(C(=O)NCCN(C)C)ccc1c23`, for which the figures for the K app in the test on Nucleic Acid [1], in the test with Nucleic Acid [2] and in the test with Nucleic Acid [3] were 5.04e-07 M⁻¹, 1.62e-07 M⁻¹ and 2.82e-08 M⁻¹, respectively.
Regarding `CCN(CC)CCNC(=O)c1ccc2c3c(c4ccccc4nc13)NN2CCN(CC)CC`, the K app in the test with Nucleic Acid [1] was 4.34e-07 M⁻¹; in the test on Nucleic Acid [2], 9.3e-07 M⁻¹; in the test with Nucleic Acid [3] it was 3.9e-07 M⁻¹.
For the compound `CN(C)CCNC(=O)c1ccc2c3c(c4cc(N)ccc4nc13)NN2CCN1CCCCC1`, the K app in the test with Nucleic Acid [1] turned out to be 3.24e-07 M⁻¹; in the test on Nucleic Acid [2], 3.5e-06 M⁻¹; in the test with Nucleic Acid [3] it was 1.64e-06 M⁻¹.
Consider `CN(C)CCNC(=O)c1ccc2c3c(c4cc([N+](=O)[O-])ccc4nc13)NN2CCN1CCCCC1`, for which the K app with Nucleic Acid [4] worked out at 9.69e+08 M⁻¹; in the test on Nucleic Acid [2] it was 1.35e-05 M⁻¹; with Nucleic Acid [3], 0.000242 M⁻¹.
As to `CN(C)CCNC(=O)c1ccc2c3c(c4cc(N)ccc4nc13)NN2CCN(C)C`, the results for the K app in the test on Nucleic Acid [4], with Nucleic Acid [2] and in the test on Nucleic Acid [3] were 2.8e+08 M⁻¹, 5.9e-07 M⁻¹ and 1.7e-06 M⁻¹, respectively.
In the case of `COc1ccc2c(c1)-c1nn(CCCN(C)C)c3ccc(C(=O)NCCN(C)C)c(c13)N2`, the K app was determined as 2.93e-07 M⁻¹ in the test with Nucleic Acid [1], 5e-07 M⁻¹ with Nucleic Acid [2] and 1.47e-07 M⁻¹ in the test with Nucleic Acid [3].
In the same order, the values of `CN(C)CCCN1Nc2c3cc(O)ccc3nc3c(C(=O)NCCN(C)C)ccc1c23` are 7.88e-07 M⁻¹, 1.8e-07 M⁻¹ and 4.7e-08 M⁻¹.
